Results published in ChEMBL document CHEMBL3352729, “Hydroxybenzothiophene Ketones Are Efficient Pre-mRNA Splicing Modulators Due to Dual Inhibition of Dyrk1A and Clk1/4” (ACS Med Chem Lett, 2014).

Target: Dual specificity tyrosine-phosphorylation-regulated kinase 1A (Homo sapiens, UniProt Q13627)
Assay: Inhibition of recombinant Dyrk1A (unknown origin) using KKISGRLSPIMTEQ-NH2 peptide substrate
Method in brief: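 Kinase activity was measured in a cell-free assay with recombinant enzyme and peptide substrate at 100 μM ATP. Values are reported as IC50.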

CCN1/C(=C/C(C)=O)Sc2ccc(OC)cc21
IC50: 0.83 µM
